{"sequences": {"note": "The chains behind the UniProt entries cited, without tags or fusion partners. Residues count along the entry.", "UniProt Q96KQ7, 913-1193 limits assumed": "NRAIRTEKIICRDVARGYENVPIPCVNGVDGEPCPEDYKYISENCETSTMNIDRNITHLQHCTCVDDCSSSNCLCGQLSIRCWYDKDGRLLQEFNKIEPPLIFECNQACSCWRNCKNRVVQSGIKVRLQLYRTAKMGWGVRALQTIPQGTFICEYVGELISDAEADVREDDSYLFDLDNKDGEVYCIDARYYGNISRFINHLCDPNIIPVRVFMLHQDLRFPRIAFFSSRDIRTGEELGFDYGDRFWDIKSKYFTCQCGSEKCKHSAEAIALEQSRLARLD"}, "source": "PubChem BioAssay AID504332", "about": "(National Center for Advancing Translational Sciences (NCATS), 2011)", "note": "The list shows a part of the results, in another mix than the full data. Some results for these compounds are left out of this collection, so the calls shown say nothing about other tests. Records with an inconclusive call do not appear. Entries that show only a call come without a potency. Active and inactive are the calls of the source. Calls come from the whole dose curve; as a rule, active = well fitted inhibition curve with a large enough effect; inconclusive = small, poorly fitted or top-dose-only effect; inactive = no such curve, though single readings can be large or run the other way.", "data": [{"biological_target": "Histone-lysine N-methyltransferase EHMT2 (Homo sapiens) (UniProt Q96KQ7)", "assay": "qHTS Assay for Inhibitors of Histone Lysine Methyltransferase G9a; note: nearly all actives have a fitted effect of over 75% in size; note: potency is the fitted concentration of half-maximal effect", "settings": "G9a H3K9 monomethylation, AlphaScreen, 2 h; series mostly up to 59 µM", "values": [{"compound": "CN1CCCC(OC(=O)C(O)(c2ccccc2)c2ccccc2)C1", "note": "(stereo unspecified)", "activity, negative = inhibition": "inactive: -31.5% [at 12.7 µM]"}, {"compound": "CCCCOc1ccccc1C(=O)NCC1(N(C)C)CCCCC1", "activity, negative = inhibition": "inactive"}, {"compound": "CN(C)C1(CNC(=O)c2ccccc2[N+](=O)[O-])CCCCC1", "activity, negative = inhibition": "inactive"}, {"compound": "CN(C)C1CCCC1OC(=O)C(O)(c1ccccc1)c1ccccc1", "note": "(stereo unspecified)", "activity, negative = inhibition": "inactive"}, {"compound": "CN(C)c1ccc(C(=O)NCC2(N(C)C)CCCCC2)cc1", "activity, negative = inhibition": "inactive"}, {"compound": "Cc1cc(C(=O)NCC2(N3CCCCC3)CCCCC2)ccc1[N+](=O)[O-]", "activity, negative = inhibition": "inactive"}, {"compound": "CCN1CCCC(OC(=O)C2(O)c3ccccc3C=Cc3ccccc32)C1", "note": "(stereo unspecified)", "activity, negative = inhibition": "inactive"}, {"compound": "O=C(NCC1(N2CCCCC2)CCCCC1)c1cccc(Br)c1", "activity, negative = inhibition": "inactive"}, {"compound": "COc1ccc(C(=O)NCC2(N(C)C)CCCCC2)cc1", "activity, negative = inhibition": "inactive: -22.7% [at 2.33 µM]"}, {"compound": "CCOc1cccc(C(=O)NCC2(N(C)C)CCCCC2)c1", "activity, negative = inhibition": "inactive"}, {"compound": "CN1[C@@H]2CC[C@H]1CC(OC(=O)C(O)(c1ccccc1)c1ccccc1)C2", "note": "(stereo partly specified)", "activity, negative = inhibition": "inactive"}, {"compound": "O=C(NCC1(N2CCCCC2)CCCCC1)c1cc([N+](=O)[O-])ccc1Cl", "activity, negative = inhibition": "inactive"}, {"compound": "CN(C)C1(CNC(=O)c2ccccc2F)CCCCC1", "activity, negative = inhibition": "inactive"}, {"compound": "Cc1ccc(C(=O)NCC2(N3CCCCC3)CCCCC2)cc1", "activity, negative = inhibition": "inactive"}, {"compound": "CC(C)N1C(=O)CC2(CCN(CCOC(=O)C(O)(c3ccccc3)c3ccccc3)CC2)C1=O", "activity, negative = inhibition": "inactive: 20.1% [at 12.7 µM]"}, {"compound": "CCN(CC)CC(C)C(C)OC(=O)C(O)(c1ccccc1)c1ccccc1", "note": "(stereo unspecified)", "activity, negative = inhibition": "inactive: 9.67% [at 12.7 µM]"}, {"compound": "CN(C)C1(CNC(=O)c2cccc(Cl)c2)CCCCC1", "activity, negative = inhibition": "inactive"}, {"compound": "COc1cc(SC)ccc1C(=O)NCC1(N(C)C)CCCCC1", "activity, negative = inhibition": "inactive: -11.3% [at 2.33 µM]"}, {"compound": "CC(C)COc1ccc(C(=O)NCC2(N(C)C)CCCCC2)cc1", "activity, negative = inhibition": "inactive"}, {"compound": "O=C(OC1CN2CCC1CC2)C(CO)(c1ccccc1)c1ccccc1", "note": "(stereo unspecified)", "activity, negative = inhibition": "inactive: -11.9% [at 12.7 µM]"}, {"compound": "COc1cccc(C(=O)NCC2(N3CCOCC3)CCCCC2)c1", "activity, negative = inhibition": "inactive"}, {"compound": "CN(C)c1cccc(C(=O)NCC2(N(C)C)CCCCC2)c1", "activity, negative = inhibition": "inactive"}, {"compound": "CC(C)Oc1ccc(C(=O)NCC2(N(C)C)CCCCC2)cc1", "activity, negative = inhibition": "inactive"}, {"compound": "COc1cc(C(=O)NCC2(N(C)C)CCCCC2)cc(OC)c1OC", "activity, negative = inhibition": "inactive"}, {"compound": "Cc1cccc(C(=O)NCC2(N(C)C)CCCCC2)c1", "activity, negative = inhibition": "inactive"}, {"compound": "COc1cc(C(=O)NCC2(N(C)C)CCCCC2)c([N+](=O)[O-])cc1OC", "activity, negative = inhibition": "inactive"}, {"compound": "CN(C)C1(CNC(=O)c2ccc(Br)cc2)CCCCC1", "activity, negative = inhibition": "inactive"}, {"compound": "O=C(NCC1(N2CCCCC2)CCCCC1)c1cccc(Cl)c1", "Potency": "active: 20 µM"}, {"compound": "COc1ccc(C(=O)NCC2(N(C)C)CCCCC2)cc1Cl", "activity, negative = inhibition": "inactive"}, {"compound": "COc1cccc(C(=O)NCC2(N3CCCCC3)CCCCC2)c1", "activity, negative = inhibition": "inactive"}, {"compound": "COc1ccc(Cl)cc1C(=O)NCC1(N(C)C)CCCCC1", "activity, negative = inhibition": "inactive"}]}]}
